EP4847524A2, “FATTY ACID CONJUGATED CYCLIC PEPTIDES” (dated 2026)

By UniProt entry, the sequences of proteins in these tests, tags left out. Residues count along the entry.
UniProt P34998, 24-415 limits assumed: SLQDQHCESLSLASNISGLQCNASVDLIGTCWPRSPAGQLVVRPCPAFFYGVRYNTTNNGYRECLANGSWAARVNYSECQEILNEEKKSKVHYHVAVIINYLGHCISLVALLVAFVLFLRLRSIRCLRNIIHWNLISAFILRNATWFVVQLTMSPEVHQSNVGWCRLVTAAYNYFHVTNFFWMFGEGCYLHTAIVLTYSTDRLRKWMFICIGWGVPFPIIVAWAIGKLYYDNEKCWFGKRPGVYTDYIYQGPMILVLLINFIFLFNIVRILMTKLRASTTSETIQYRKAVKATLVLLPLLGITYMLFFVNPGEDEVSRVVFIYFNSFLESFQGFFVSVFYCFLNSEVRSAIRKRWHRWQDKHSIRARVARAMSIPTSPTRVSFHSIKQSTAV

Assays:
hCRF-R1 = hCRF-R1 (Homo sapiens, UniProt P34998); experiment: cAMP assay (HitHunter), antagonist IC50 in CHO-K1 hCRF-R1 cells, with or without BSA
Method: Human CHO-KI CRF-R1 (hCRF-R1; Catalog # 95-0047C2) and human CHO-K1 CRF2 (hCRF-R2; Catalog # 95-0048C2) cell lines were purchased from Eurofins.
CHO-K1 Complete Media: DMEM Version (complete medium):Dulbecco's Minimal Essential Media with High Glucose, 4.5% (DMEM-HG), 10% [vol] U.S. Sourced, Certified Fetal Bovine Serum (FBS), and 1X [standard mammalian cell culture concentration] of the following: L-Glutamine, Non-Essential Amino Acids, Hepes Buffer (10 mM final concentration) and a standard antibiotic/antimycotic mix (penicillin, streptomycin, amphotericin B (Gibbco Cat # 15240062).
CHO-K1 Complete Media - HF12 Version is the same as the CHO-K1 Complete Media, DMEM Version (complete medium), except that Ham's F-12 was used as the base media. Cell Plating 2 Reagent (CPR2) - Eurofins DiscoverX Assay Complete Cell Plating 2 Reagent (Cat# 93-0563R2A). Lipofecamine LTX (Invitrogen™ Cat# 15338100). FuGENE 6 (Promega Cat# E2691). Bovine Albumin Fraction V, Fatty Acid Free: MP Biomedicals, Cat. 152401, Lot. S8210.
On Day 0, cryovial(s) containing the frozen cells (approx. 1.0E+6 cells/vial) stored in liquid nitrogen were removed and thawed in a 37°C water bath for 60 seconds and then diluted into fresh CHO-K1 Complete Media that was pre-warmed to 37°C. […]
Eurofins Assay Ready (division arrested) versions of the above hCRF-R1 and hCRF-R2 (hCRF-R1 and hCRF-R2 eXpress cell/assay kits) cells were removed from liquid nitrogen storage and thawed in a 37°C water bath for 30 seconds and then diluted into fresh Cell Plating 2 Reagent that was pre-warmed to 37°C. […]
cAMP was determined utilizing a DiscoverX HitHunter assay Enzyme Fragment Complementation (EF) technology purchased from Eurofins as described in the manufacturing instructions with some adjustments. IC50's were calculated from antagonist dose response curves utilizing interpolated cAMP levels and/or relative light unit (RLU) data. In addition, eXpress assay ready cAMP kits were also utilized with hCRF-R1 and hCRF-R2 division arrested cells according to the manufacturing instructions. […]

[1] = Size exclusion chromatography (SEC) for aggregation; conditions: in either 10mM phosphate at pH 7 or 10mM TRIS at pH8
Method: Preliminary screening methods for the evaluation of multiple fatty acid peptide analogs included a two-stage approach. First, formulations were prepared at target concentrations of approximately 10, 20, 40 or 50 mg/mL in 150 mM phosphate, pH 7.5. These formulations were titrated using NaOH, as needed, to the target pH 7.5 and were evaluated (visual assessment only). For visibly insoluble formulations, an additional buffer was added to dissolve the peptide. Once dissolved, all formulations were filtered through a 0.2 µm PVDF filter membrane and analyzed by RP-HPLC for soluble content. Formulations were incubated at 4°C, room temperature, and 37°C. At day 0 and 7 the formulations were analyzed by visual observation for solubility, size exclusion chromatography (SEC) for aggregation, & RP-HPLC for chemical stability studies.
Size exclusion chromatography (SEC) was conducted using an Agilent 1260 Infinity II-UV equipped with a Sepax Zenix-C SEC-300 (3 µm, 300 Å, 4.6 x 300 mm). UV absorption at 220 nm was monitored during the analysis. Formulated samples from day 0 and 7 were used directly for injection with injection volume of 1 µL. Separation was achieved using an isocratic buffer system containing 150 mM sodium phosphate (pH 7.5) at room temperature, with a constant flow rate at 0.35 mL/minute, and a run time of 15 minutes. […]

## Ac-Asp-Leu-Thr-D-Phe-His-Leu-Leu-Arg-Glu-Val-Leu-Glu-Nle-K*-Arg-Glu-Glu-Gln-cVal-Ala-Gln-E#-Ala-Glu-K#-Asn-Arg-Lys-Leu-Nle-Glu-cVal-Ala-CONH2
hCRF-R1; read-out: CRFR1 (IC50 nM) BSA (0.1%), BSA (0.1%)
  IC50: 98 nM
hCRF-R1; read-out: CRFR1 (IC50 nM) No Albumin, No Albumin
  IC50: 3.5 nM
hCRF-R1; read-out: CRFR1 IC50 in BSA, assay buffer containing 0.1% BSA, agonist hCRF 1 nM
  IC50: 98 nM
[1]
  aggregation: no aggregation

Where two headings read alike, the source gives them in different places.
